Experimental data published in PMC8237303 (Heliyon, 2021).

Sequences of proteins named here, by UniProt entry; tags and fusion partners are left off. A change or cut given only in a name is not applied to a line headed by its entry.
UniProt P08172, whole entry: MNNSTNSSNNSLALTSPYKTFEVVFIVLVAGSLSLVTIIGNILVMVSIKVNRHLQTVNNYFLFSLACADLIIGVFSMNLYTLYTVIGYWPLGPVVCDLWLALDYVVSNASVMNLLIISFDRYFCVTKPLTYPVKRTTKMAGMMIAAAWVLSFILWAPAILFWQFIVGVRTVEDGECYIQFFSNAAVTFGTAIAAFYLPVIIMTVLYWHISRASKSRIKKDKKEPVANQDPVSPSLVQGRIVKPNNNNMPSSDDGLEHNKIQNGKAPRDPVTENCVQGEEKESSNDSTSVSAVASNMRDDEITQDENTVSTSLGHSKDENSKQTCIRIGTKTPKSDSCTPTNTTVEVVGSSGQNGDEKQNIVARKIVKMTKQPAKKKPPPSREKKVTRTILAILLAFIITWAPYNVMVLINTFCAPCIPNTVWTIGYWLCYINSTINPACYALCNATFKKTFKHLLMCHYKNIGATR
UniProt P35372, whole entry: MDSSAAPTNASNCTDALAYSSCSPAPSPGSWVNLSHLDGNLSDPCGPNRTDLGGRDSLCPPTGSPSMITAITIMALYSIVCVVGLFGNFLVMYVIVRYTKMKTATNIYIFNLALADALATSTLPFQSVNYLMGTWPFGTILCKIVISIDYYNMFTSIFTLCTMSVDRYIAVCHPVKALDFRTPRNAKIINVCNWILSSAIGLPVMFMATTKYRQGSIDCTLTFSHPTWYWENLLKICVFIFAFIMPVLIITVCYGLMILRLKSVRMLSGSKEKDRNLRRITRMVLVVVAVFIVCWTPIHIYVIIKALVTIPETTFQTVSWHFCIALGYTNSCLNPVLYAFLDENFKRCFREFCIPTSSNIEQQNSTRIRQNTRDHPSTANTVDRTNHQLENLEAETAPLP
UniProt P49146, whole entry: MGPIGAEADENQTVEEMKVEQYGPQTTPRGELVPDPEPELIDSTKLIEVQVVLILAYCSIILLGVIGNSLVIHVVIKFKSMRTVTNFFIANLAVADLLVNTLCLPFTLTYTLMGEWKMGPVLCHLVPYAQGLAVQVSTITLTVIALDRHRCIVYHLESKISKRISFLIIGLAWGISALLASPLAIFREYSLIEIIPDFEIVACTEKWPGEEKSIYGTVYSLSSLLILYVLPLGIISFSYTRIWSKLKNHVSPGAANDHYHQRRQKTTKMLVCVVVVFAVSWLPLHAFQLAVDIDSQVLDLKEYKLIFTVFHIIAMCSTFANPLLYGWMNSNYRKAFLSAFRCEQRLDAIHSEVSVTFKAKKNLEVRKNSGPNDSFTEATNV
UniProt Q9Y5N1: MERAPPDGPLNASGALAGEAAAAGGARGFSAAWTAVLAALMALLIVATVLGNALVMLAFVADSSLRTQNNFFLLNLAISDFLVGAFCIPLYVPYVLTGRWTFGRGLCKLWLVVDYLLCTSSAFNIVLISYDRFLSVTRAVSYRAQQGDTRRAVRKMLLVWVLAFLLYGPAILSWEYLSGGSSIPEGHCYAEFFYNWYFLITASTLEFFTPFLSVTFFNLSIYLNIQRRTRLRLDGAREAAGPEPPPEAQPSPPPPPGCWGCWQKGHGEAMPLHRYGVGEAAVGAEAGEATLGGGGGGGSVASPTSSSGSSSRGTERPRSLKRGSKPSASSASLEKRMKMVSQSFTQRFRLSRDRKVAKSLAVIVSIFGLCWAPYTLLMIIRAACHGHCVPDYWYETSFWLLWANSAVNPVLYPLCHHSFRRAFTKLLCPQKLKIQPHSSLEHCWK
UniProt P35462, whole entry: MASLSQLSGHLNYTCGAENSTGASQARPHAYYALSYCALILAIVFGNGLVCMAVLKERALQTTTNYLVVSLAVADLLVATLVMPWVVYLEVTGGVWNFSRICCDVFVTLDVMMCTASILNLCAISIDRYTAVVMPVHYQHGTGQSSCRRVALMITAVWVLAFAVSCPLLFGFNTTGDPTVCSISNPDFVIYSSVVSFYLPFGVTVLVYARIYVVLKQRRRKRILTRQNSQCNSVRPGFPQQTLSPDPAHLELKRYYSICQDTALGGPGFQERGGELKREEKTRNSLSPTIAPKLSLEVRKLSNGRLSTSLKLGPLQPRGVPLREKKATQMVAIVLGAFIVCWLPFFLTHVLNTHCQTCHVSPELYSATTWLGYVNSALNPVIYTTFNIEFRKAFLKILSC

Tests used:
[1] = target: Muscarinic M2 receptor (Human) (Homo sapiens, UniProt P08172); assay: [3H]-Scopolamine Methyl Chloride binding assay; settings: Human recombinant
[2] = target: Opiate μ receptor (Human) (Homo sapiens, UniProt P35372); assay: [3H]-Diprenorphine binding assay; settings: Human recombinant
[3] = target: Neuropeptide Y2 receptor (Human) (Homo sapiens, UniProt P49146); assay: [125I]-Peptide YY; format: binding; settings: Human receptor (Non-recombinant)
[4] = target: Histamine H3 receptor (Human) (Homo sapiens, UniProt Q9Y5N1); assay: N-alpha-[3H]-Methylhistamine, Dihydrochloride binding assay; settings: Human recombinant
[5] = target: Dopamine D3 receptor (Human) (Homo sapiens, UniProt P35462); assay: R-; format: binding; settings: Human recombinant

Molecule: CN1C2CCC1CC(OC(=O)C(CO)c1ccccc1)C2.CN1C2CCC1CC(OC(=O)C(CO)c1ccccc1)C2.O.O=S(=O)(O)O (centres unmarked) [Atropine sulfate salt monohydrate]
- Inhibition by a positive substance (%) [1]: 99.97%

Molecule: [D-Ala 2, N–Me-Phe 4, Gly5-ol]-Enkephalin acetate salt
- Inhibition by a positive substance (%) [2]: 100%

Molecule: Neuropeptide Y human
- Inhibition by a positive substance (%) [3]: 98.66%

Molecule: C[C@@H](N)Cc1c[nH]cn1.Cl.Cl [(R) (−)-α-Methylhistamine dihydrochloride]
- Inhibition by a positive substance (%) [4]: 100%

Molecule: CCCN(CCC)C1CCc2ccc(O)cc2C1 (racemic) [(±)-7-Hydroxy-2-(di-n-propylamino)tetralin]
- Inhibition by a positive substance (%) [5]: 100%
